Consider one compound from patent publication US20100160359A1, “Modulators of Metabolism and the Treatment of Disorders Related Thereto” (ARENA PHARMACEUTICALS, INC., priority 2005, published 2010).

Assay [1] deals with T1, RUP3 receptor (Canis lupus familiaris, UniProt A0A8I3QZL6).
T1 sequence (A0A8I3QZL6 1-335): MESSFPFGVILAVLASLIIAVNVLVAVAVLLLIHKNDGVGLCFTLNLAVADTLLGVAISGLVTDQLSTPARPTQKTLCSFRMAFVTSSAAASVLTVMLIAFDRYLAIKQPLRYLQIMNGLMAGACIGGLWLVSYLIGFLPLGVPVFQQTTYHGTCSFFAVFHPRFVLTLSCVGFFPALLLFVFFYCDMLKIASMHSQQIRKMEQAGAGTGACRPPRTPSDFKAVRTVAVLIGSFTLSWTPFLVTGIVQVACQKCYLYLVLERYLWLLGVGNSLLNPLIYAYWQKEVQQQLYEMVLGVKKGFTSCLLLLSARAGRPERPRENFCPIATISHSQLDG
Nature of the assay: RUP3 dose response in melanophores (dog). The assay is classed as cell-based.

The target of assay [2] is T2, RUP3 receptor (Macaca fascicularis, UniProt G7Q3P2).
T2 sequence (G7Q3P2 1-335): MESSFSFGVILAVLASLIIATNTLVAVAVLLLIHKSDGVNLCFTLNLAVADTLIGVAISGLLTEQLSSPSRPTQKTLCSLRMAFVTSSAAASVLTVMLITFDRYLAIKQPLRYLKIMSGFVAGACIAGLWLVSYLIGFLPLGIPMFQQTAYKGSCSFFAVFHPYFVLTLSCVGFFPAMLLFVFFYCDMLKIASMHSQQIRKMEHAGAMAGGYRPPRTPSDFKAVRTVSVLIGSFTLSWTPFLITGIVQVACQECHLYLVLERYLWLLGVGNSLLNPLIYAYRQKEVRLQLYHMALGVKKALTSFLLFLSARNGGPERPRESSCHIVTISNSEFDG
Nature of the assay: RUP3 dose response in melanophores (cynomolgus monkey). Conditions: read-out: EC50, RUP3 receptor agonist (cynomolgus monkey). The assay is classed as cell-based.

Molecules are shown by their SMILES.

On to `Cc1ncccc1Oc1ncnc(OC2CCN(C(=O)OC(C)C)CC2)c1C` [4-[5-methyl-6-(2-methyl-pyridin-3-yloxy)-pyrimidin-4-yloxy]-piperidine-1-carboxylic acid isopropyl ester], for which the EC50 is 1 nM at RUP3 receptor [1] and 35 nM on RUP3 receptor [2].

What is called EC50 is the concentration giving half of the maximal effect.
